According to ChEMBL document CHEMBL1153304, “2,4-Diaminopyridine delta-opioid receptor agonists and their associated hERG pharmacology” (Bioorg Med Chem Lett, 2009):

Experiments:
[1] = Selectivity for human recombinant DOR over kappa opioid receptor
[2] = Selectivity for human recombinant DOR over mu opioid receptor
Homo sapiens = species: Homo sapiens; test: Selectivity for human recombinant DOR over human ERG

SMILES | fold change (FC) [1] | fold change (FC) [2] | fold change (FC) (Homo sapiens)
COc1ccc(-n2c(=O)n(C3CCN(c4cc(N)ccn4)CC3)c3ncccc32)cc1 | 50 | 50 | 
Nc1ccnc(N2CCC(n3c(=O)n(Cc4ccccc4)c4cccnc43)CC2)c1 | 50 | 50 | 
Nc1ccnc(N2CCC(n3c(=O)n(-c4ccccc4)c4cccnc43)CC2)c1 | 50 | 50 | 
COc1ccc(C(=O)N(c2cc(C)ccn2)C2CCN(c3cc(N)ccn3)CC2)cc1 |  |  | 500
Nc1ccnc(N2CCC(n3c(=O)n(CC4CC4)c4cccnc43)CC2)c1 | 50 | 50 | 
